# Binding of CDR-mutated scFvs to a peptide of the spike HR2 region

Data: MIT Lincoln Laboratory AlphaSeq set, Engelhart et al. 2022, doi:10.1038/s41597-022-01779-4, as distributed in FLAb.

All variants were tested on one target, the spike HR2 peptide PDVDLGDISGINAS (SARS-CoV-2).

Each scFv is VH, three GGGGS repeats, VL, as in the parent Ab-14, and differs from it in the CDRs of the light chain only.
VH: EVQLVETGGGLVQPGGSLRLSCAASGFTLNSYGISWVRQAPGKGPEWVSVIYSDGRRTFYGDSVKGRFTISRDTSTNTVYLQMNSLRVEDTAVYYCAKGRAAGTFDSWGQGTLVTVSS
VL: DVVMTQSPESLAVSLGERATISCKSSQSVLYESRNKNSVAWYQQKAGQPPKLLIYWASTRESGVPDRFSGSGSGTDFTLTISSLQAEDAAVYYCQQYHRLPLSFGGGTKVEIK

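The parent was found by panning a naive human phage display library on the peptide. In library AAYL50, one, two or three CDR residues were substituted; doubles and triples were drawn at random. The assay is AlphaSeq: two haploid yeast populations carry antibody and antigen on their surface. Mating (16 h, 30 °C) was followed by selection of diploids and sequencing of their barcodes. A regression on co-assayed BCL2-family reference pairs converts the normalised counts of each replicate to an apparent Kd. There are three technical replicates.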

Variants are written as CDR1, CDR2 and CDR3 of the light chain (limits as in the source). Parent: KSSQSVLYESRNKNSVA, WASTRES, QQYHRLPLS. Numbers give log10(Kd / nM), so 0 is 1 nM and 3 is 1 µM. Smaller is tighter. Averages over replicates are reported, and they cover detected replicates only. "nd" means that the variant was in the library but no mating with the target was seen in that replicate; the authors take this as a sign of poor binding, and no number exists.

CDR-L1,CDR-L2,CDR-L3,"replicates, log10 nM","mean, log10 nM",signal with controls
KSSQSVLYESRNKNCVA,WANTRES,QQYHRLPFS,2.47 / 2.17 / 2.52,2.39,5/9 (4.04)
KSSQSVLYESRNKNSVH,WASDRES,QQYHELPLS,nd / nd / nd,nd,0/9
KSSQSVLYQSRNKWSVA,WASTRES,QQYHRLPLS,2.64 / 2.54 / 2.74,2.64,1/9 (3.81)
KSSQSVLPESRNKNSVA,WASTRES,QQYHFLPLS,1.45 / nd / nd,1.45,0/9
KSSQSNLYESRNKNSVA,WASTRIS,QQYMRLPLS,nd / 4.25 / nd,4.25,1/9 (3.99)
KSSQSVLYEGRNKNSVA,WASSGES,QQYHRLPLS,4.64 / 4.68 / nd,4.66,6/9 (4.48)
KSSQSVLYESRNKNSVA,WAQTRES,QQYHEDPLS,nd / nd / nd,nd,0/9
KESQSVLYERRNKNSVA,WASTRES,QQYHRLMLS,2.38 / 1.64 / 2.13,2.05,1/9 (3.08)
KLRQSVEYESRNKNSVA,WASTRES,QQYHRLPLS,0.13 / 0.47 / 0.22,0.27,1/9 (3.15)
KSSQSVLYESRNTNSSA,WASTRES,QRYHRLPLS,nd / nd / 4.16,4.16,4/9 (4.24)
KSSQMVLYENRNKNSVA,WASTRES,QQSHRLPLS,1.95 / 1.63 / 1.63,1.74,4/9 (3.64)
KSSQSVRYESRNKNSVS,WASTRES,QQYHRLPLS,nd / nd / nd,nd,0/9
KSSQSVLYESRNKNSVA,WASWRES,QQYHMLPLF,1.86 / 1.78 / 2.16,1.94,1/9 (5.15)
KSSQDVPYESRNKMSVA,WASTRES,QQYHRLPLS,1.44 / 1.46 / 1.53,1.48,7/9 (4.18)
KNSQSPLYESRNKGSVA,WASTRES,QQYHRLPLS,3.49 / 2.73 / 2.92,3.05,0/9
KSSQSVEYESPNKNGVA,WASTRES,QQYHRLPLS,1.27 / 1.34 / 1.30,1.30,6/9 (4.42)
KSSQSVLYESRNKMSVA,IALTRES,QQYHRLPLS,nd / nd / nd,nd,0/9
KSSQFVLYESRNKPSVA,WASTRES,QQYHRLPMS,nd / nd / 3.95,3.95,2/9 (4.35)
KSSQSVLYISRNKNSVA,PASTRES,QQYHRLPLS,2.43 / 3.28 / 2.50,2.74,5/9 (4.40)
KSSQSVLYLSRNKNSVA,WASTRES,QQYHLLRLS,1.90 / 2.40 / 1.82,2.04,2/9 (4.11)
KSWQSVLYESRNDNSVA,WASTRES,QQYFRLPLS,1.04 / 1.25 / 0.48,0.92,0/9
KSSQSVLYESRNKNSVY,WASTRGS,QEYHRLPLS,nd / nd / nd,nd,0/9
KSSESVLYESRNKNSVA,WASTREE,QDYHRLPLS,0.66 / 0.89 / 0.73,0.76,1/9 (3.48)
KSSQSRLYESRNKNSVA,WASTRES,QQYHMLYLS,3.88 / nd / nd,3.88,2/9 (3.78)
KSSYSVLYESRNKNSVA,WPSTRES,QQMHRLPLS,3.97 / 4.53 / 4.43,4.31,1/9 (4.28)
KSSQSVLYESRNKQSVA,WASTRES,QQFHRLWLS,nd / nd / 3.34,3.34,2/9 (3.85)
KNSQSVLYESRNKNSVW,WASTREV,QQYHRLPLS,nd / nd / nd,nd,1/9 (3.28)
KSSQSVLYESRNKNCVY,WASTRES,QQYHRLPLS,nd / 3.92 / nd,3.92,2/9 (4.72)
KSSQPVLYESRNKESVA,WASTRES,QQYHDLPLS,1.36 / 1.36 / 1.33,1.35,0/9
KSSQSVLYESRNKCSPA,WANTRES,QQYHRLPLS,4.91 / 3.53 / nd,4.22,0/9
KSSQSVLYVSINKNSVA,WASTRES,QQYHRLPLS,nd / nd / nd,nd,0/9
KSSPSVLYESVNKNSVA,WASTRES,QQFHRLPLS,3.08 / 3.53 / nd,3.31,1/9 (3.48)

The 3 strongest on average among those seen in every replicate, once more:

CDR-L1	CDR-L2	CDR-L3	replicates, log10 nM	mean, log10 nM	signal with controls
KLRQSVEYESRNKNSVA	WASTRES	QQYHRLPLS	0.13 / 0.47 / 0.22	0.27	1/9 (3.15)
KSSESVLYESRNKNSVA	WASTREE	QDYHRLPLS	0.66 / 0.89 / 0.73	0.76	1/9 (3.48)
KSWQSVLYESRNDNSVA	WASTRES	QQYFRLPLS	1.04 / 1.25 / 0.48	0.92	0/9

Empty control strains, which show no peptide, gave a signal in 18% of pairings with library AAYL50; the median was 4.19 and 95% of these signals were weaker than 2.99. No background was subtracted. The control count says in how many pairings with the empty strains this scFv gave a signal, with their mean in brackets. Parent in this assay: reference entry 0.65, copy in this library 1.68.